Drawing on BindingDB's records for US9221831, this text covers EC50 and Ki for 5 compounds.

The chains behind the UniProt entries cited, without tags or fusion partners.
UniProt P35372, whole entry: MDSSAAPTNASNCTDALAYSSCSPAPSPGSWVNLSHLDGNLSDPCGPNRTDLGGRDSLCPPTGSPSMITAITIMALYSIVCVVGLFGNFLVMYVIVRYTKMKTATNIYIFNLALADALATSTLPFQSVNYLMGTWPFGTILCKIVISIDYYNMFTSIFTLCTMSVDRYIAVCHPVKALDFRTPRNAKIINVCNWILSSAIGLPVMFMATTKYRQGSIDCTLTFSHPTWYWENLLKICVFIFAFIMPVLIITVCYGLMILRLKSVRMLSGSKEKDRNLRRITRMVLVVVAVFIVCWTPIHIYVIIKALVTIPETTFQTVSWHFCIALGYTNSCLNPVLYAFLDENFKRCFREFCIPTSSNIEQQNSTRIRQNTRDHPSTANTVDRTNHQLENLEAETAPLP
UniProt P41145, whole entry: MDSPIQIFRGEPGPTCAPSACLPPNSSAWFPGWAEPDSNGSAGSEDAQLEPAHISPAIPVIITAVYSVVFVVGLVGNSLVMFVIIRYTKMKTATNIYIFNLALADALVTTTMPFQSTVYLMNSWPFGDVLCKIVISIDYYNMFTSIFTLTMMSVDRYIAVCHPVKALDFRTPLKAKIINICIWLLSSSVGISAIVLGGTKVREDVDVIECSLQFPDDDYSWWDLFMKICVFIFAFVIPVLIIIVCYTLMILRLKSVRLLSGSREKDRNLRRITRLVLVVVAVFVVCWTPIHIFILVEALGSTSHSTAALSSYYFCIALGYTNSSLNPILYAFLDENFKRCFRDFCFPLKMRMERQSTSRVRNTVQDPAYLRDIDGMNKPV
UniProt P41143, whole entry: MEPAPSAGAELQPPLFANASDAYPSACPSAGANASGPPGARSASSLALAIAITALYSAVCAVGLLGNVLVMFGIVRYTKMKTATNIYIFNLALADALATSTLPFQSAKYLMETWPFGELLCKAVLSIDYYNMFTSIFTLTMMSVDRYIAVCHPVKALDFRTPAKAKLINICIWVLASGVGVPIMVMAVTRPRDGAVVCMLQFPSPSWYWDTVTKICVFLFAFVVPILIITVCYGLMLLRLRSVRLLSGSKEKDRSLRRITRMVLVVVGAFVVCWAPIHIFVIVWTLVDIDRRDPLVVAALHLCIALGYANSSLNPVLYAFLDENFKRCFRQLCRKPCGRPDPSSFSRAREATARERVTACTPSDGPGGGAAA
UniProt P41146, whole entry: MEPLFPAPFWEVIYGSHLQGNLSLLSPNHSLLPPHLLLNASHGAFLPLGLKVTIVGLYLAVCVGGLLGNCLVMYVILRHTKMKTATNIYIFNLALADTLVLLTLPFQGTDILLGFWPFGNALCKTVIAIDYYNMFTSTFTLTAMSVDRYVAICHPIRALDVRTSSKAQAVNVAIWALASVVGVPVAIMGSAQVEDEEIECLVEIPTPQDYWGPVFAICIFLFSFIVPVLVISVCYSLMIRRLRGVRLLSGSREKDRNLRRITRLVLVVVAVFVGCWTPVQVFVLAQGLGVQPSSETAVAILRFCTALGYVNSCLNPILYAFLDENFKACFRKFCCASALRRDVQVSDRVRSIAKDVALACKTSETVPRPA

The target of assay [1] is T1, Mu-type opioid receptor (Homo sapiens, UniProt P35372). In words: ASSAY_NAME: Functional Assay DESCRIPTION: [35S]GTPgammaS functional assays were conducted using freshly thawed u-receptor membranes (Perkin Elmer, Shelton, Conn.). Assay reactions were prepared by sequentially adding the following reagents to binding buffer (100 mM NaCl, 10 mM MgCl2, 20 mM HEPES, pH 7.4) on ice (final concentrations indicated): membrane protein (0.026 mg/mL), saponin (10 mg/mL), G. A general note: GTPγS is a poorly hydrolysed GTP analogue; its binding reports G protein activation.

Assay [2] addresses T2, Kappa-type opioid receptor (Homo sapiens, UniProt P41145). In words: ASSAY_NAME: Radioligand Dose-Displacement Binding Assay DESCRIPTION: Radioligand dose displacement assays used 0.4 nM [3H]-U69,593 (GE Healthcare, Piscataway, N.J.; 40 Ci/mmole) with 15 μg membrane protein (recombinant κ opioid receptor expressed in HEK 293 cells; in-house prep) in a final volume of 200 μl binding buffer (5% DMSO, 50 mM Trizma base, pH 7.4). Non-specific binding was.

Assay [3] deals with T2, Kappa-type opioid receptor. Kind of assay: ASSAY_NAME: Functional Assay DESCRIPTION: Functional [35S]GTPgammaS binding assays were conducted as follows. kippa opioid receptor membrane solution was prepared by sequentially adding final concentrations of 0.026 ug/ul kippa membrane protein (in-house), 10 ug/mL saponin, 3 uM GDP and 0.20 nM [35S]GTPgammaS to binding buffer (100 mM NaCl, 10 mM MgCl2, 20 mM HEPES, pH 7.4) on ice. The prepared me.

For assay [4], the target named is T1, Mu-type opioid receptor. In words: ASSAY_NAME: Radioligand Dose-Displacement Binding Assay DESCRIPTION: Radioligand dose-displacement binding assays for t-opioid receptors used 0.3 nM [3H]-diprenorphine (Perkin Elmer, Shelton, Conn.), with 5 mg membrane protein/well in a final volume of 500 ul binding buffer (10 mM MgCl2, 1 mM EDTA, 5% DMSO, 50 mM HEPES, pH 7.4). Reactions were carried out in the absence or presence of increasing c.

Assay [5] concerns the target Delta-type opioid receptor (Homo sapiens, UniProt P41143). In words: ASSAY_NAME: Radioligand Dose-Displacement Binding Assay DESCRIPTION: Delta-opioid Receptor Binding Assay Procedures were conducted as follows. Radioligand dose-displacement assays used 0.3 nM [3H]-Naltrindole (Perkin Elmer, Shelton, Conn.; 33.0 Ci/mmole) with 5 ug membrane protein (Perkin Elmer, Shelton, Conn.) in a final volume of 500 ul binding buffer (5 mM MgCl2, 5% DMSO, 50 mM Trizma base, pH. Conditions: pH 7.4.

In assay [6] the target is T3, Nociceptin receptor (Homo sapiens, UniProt P41146). In words: ASSAY_NAME: Radioligand Dose-Displacement Binding Assay DESCRIPTION: Radioligand binding assays (screening and dose-displacement) used 0.1 nM [3H]-nociceptin (Perkin Elmer, Shelton, Conn.; 87.7 Ci/mmole) with 12 ug membrane protein in a final volume of 500 ul binding buffer (10 mM MgCl2, 1 mM EDTA, 5% DMSO, 50 mM HEPES, pH 7.4). Non-specific binding was determined in the presence of 10 nM unlabele.

In assay [7] the target is T3, Nociceptin receptor. Kind of assay: ASSAY_NAME: Functional Assay DESCRIPTION: Functional [35S]GTPgammaS binding assays were conducted as follows. ORL-1 membrane solution was prepared by sequentially adding final concentrations of 0.026 ug/ul ORL-1 membrane protein, 10 ug/ml saponin, 3 uM GDP and 0.20 nM [35S]GTPgammaS to binding buffer (100 mM NaCl, 10 mM MgCl2, 20 mM HEPES, pH 7.4) on ice. The prepared membrane solution (190 ul/wel.

Take `CO[C@]12CC[C@@]3(C[C@@H]1COCc1ccccc1)[C@H]1Cc4ccc(C(N)=O)c5c4[C@@]3(CCN1CC1CC1)[C@H]2O5`: the concentration giving a half-maximal response (EC50) (commonly the concentration that produces a half-maximal response) at Mu-type opioid receptor [1] was found to be 0.62 nM; in assay [3], 0.7 nM. For the same compound, the Ki (as a rule, a dissociation constant, usually derived from enzyme kinetics or from competition with a known ligand) in assay [2] stood at 0.1 nM; at Mu-type opioid receptor [4], 0.34 nM.

For the compound `CO[C@]12CC[C@@]3(C[C@@H]1COCc1ccccc1)[C@H]1Cc4ccc(F)c5c4[C@@]3(CCN1CC1CC1)[C@H]2O5`, the values for the inhibition constant Ki (in assay [5]; on Mu-type opioid receptor [4]) were 195 nM and 17.4 nM, respectively. Moreover, the values for the EC50 (on Mu-type opioid receptor [1]; in assay [3]) were 11.4 nM and 1.5 nM, respectively.

`COc1ccc2c3c1O[C@H]1[C@@]4(OC)CC[C@@]5(C[C@@H]4C(C)(C)OCc4ccccc4)[C@@H](C2)N(CC2CC2)CC[C@]315`: the EC50 at Mu-type opioid receptor [1] was determined as 5.85 nM. Moreover, the inhibition constant (Ki) in assay [2] was determined as 0.93 nM; at Mu-type opioid receptor [4], 1.76 nM.

On to `COc1ccc2c3c1O[C@H]1[C@@]4(OC)CC[C@@]5(C[C@@H]4CSCc4ccccc4)[C@@H](C2)N(CC2CC2)CC[C@]315`, for which the inhibitory constant (Ki) at Nociceptin receptor [6] stood at 1530 nM; in assay [2], 0.14 nM; at Mu-type opioid receptor [4] it was 4.69 nM. Besides, the EC50 at Mu-type opioid receptor [1] came to 32.7 nM; in assay [3] it was 2.29 nM.

Consider `CO[C@]12CC[C@@]3(C[C@@H]1COCc1ccccc1C)[C@H]1Cc4ccc(OCCO)c5c4[C@@]3(CCN1C)[C@H]2O5`, for which the inhibition constant (Ki) in assay [2] is 0.46 nM. The EC50 at Nociceptin receptor [7] came to 4100 nM.
